# PubChem BioAssay (EPA / NIEHS)
# The chains behind the UniProt entries cited, without tags or fusion partners. Where a name states a change or a piece, a line headed by the entry shows the natural chain unless it says otherwise.
# UniProt P30536, whole entry, looked up: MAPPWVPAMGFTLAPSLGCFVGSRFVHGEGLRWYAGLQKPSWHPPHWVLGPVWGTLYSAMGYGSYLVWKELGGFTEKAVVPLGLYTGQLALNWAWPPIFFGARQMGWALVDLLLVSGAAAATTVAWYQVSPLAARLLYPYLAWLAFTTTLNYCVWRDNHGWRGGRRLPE
# UniProt P16257, whole entry, looked up: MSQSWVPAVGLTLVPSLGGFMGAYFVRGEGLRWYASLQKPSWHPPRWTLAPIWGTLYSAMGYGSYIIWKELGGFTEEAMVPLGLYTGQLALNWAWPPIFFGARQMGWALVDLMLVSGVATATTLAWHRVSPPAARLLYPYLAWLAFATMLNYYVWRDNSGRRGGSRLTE
# UniProt Q01717: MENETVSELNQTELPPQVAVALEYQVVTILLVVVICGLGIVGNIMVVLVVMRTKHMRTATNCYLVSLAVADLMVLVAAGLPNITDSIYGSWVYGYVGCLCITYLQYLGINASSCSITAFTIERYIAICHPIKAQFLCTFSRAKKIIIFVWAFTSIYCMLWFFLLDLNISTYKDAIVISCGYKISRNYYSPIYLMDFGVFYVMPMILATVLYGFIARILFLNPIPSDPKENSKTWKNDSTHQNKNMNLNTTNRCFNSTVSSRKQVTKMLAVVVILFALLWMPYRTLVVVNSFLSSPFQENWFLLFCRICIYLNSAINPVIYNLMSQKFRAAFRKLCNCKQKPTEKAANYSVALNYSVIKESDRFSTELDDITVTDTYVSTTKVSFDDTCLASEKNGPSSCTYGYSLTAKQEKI
# UniProt P49884, whole entry, looked up: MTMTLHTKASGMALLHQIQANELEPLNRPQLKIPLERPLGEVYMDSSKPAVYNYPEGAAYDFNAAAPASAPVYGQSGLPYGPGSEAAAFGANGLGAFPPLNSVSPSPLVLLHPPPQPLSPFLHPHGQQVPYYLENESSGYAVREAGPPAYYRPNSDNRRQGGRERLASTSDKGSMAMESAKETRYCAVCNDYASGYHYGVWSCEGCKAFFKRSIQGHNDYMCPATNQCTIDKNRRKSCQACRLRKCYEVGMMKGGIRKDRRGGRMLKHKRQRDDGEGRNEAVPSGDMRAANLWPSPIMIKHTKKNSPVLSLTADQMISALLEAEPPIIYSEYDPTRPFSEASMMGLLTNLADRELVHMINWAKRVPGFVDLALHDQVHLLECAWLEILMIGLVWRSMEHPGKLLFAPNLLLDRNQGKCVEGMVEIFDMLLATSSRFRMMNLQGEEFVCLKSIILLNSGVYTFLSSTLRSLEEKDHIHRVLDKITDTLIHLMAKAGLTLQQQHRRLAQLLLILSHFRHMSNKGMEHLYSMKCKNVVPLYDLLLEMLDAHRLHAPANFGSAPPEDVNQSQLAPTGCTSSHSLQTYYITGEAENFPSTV
# UniProt O97775: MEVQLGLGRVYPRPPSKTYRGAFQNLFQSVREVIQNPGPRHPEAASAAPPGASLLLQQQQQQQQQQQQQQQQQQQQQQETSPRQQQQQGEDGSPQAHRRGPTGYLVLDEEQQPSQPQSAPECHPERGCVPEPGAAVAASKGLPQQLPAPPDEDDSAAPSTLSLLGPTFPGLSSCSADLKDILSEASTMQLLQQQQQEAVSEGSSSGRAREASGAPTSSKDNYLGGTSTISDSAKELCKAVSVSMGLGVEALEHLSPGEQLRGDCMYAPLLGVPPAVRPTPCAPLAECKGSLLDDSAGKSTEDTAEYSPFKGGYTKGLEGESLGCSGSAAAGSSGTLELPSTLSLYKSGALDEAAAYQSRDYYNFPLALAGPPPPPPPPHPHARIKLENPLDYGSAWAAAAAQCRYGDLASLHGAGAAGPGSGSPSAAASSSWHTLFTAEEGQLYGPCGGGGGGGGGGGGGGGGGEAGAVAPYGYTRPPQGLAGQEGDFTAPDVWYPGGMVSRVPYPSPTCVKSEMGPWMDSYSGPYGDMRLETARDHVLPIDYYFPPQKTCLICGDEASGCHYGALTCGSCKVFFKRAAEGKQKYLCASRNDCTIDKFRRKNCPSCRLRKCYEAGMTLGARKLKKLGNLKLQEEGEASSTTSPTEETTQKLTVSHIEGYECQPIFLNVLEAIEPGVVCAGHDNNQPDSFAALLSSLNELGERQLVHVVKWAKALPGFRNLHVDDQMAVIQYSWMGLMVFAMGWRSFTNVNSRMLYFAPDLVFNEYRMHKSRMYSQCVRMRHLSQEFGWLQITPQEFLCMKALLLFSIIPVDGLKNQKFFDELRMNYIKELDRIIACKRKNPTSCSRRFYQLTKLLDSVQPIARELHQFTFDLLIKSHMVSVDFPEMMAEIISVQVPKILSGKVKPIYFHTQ
# UniProt P03372, whole entry, looked up: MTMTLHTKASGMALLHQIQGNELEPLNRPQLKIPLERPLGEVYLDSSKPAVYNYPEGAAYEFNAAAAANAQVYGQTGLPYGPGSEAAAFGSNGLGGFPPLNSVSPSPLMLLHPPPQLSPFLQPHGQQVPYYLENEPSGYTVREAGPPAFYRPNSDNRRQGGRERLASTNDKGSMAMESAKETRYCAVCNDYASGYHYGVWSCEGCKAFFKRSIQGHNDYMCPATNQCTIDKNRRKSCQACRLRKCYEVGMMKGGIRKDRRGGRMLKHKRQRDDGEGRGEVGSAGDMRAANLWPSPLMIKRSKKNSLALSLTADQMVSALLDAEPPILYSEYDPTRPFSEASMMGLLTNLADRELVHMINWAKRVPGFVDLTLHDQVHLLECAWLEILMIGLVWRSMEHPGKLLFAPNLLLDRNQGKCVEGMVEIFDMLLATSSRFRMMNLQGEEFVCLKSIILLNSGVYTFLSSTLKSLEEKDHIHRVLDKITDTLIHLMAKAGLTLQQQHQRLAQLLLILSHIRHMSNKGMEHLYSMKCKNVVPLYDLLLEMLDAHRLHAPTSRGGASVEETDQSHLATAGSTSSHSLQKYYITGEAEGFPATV
# UniProt P70536: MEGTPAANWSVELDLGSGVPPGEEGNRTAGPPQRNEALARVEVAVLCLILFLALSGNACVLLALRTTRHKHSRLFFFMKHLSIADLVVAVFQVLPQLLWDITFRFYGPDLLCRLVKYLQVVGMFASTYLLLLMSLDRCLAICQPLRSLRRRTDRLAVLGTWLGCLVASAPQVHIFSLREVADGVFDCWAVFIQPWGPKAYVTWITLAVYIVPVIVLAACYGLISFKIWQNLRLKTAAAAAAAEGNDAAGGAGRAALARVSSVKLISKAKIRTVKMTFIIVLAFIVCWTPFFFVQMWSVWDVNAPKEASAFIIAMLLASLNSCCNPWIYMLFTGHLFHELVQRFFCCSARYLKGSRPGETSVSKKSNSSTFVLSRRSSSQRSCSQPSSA
# UniProt P30191, whole entry, looked up: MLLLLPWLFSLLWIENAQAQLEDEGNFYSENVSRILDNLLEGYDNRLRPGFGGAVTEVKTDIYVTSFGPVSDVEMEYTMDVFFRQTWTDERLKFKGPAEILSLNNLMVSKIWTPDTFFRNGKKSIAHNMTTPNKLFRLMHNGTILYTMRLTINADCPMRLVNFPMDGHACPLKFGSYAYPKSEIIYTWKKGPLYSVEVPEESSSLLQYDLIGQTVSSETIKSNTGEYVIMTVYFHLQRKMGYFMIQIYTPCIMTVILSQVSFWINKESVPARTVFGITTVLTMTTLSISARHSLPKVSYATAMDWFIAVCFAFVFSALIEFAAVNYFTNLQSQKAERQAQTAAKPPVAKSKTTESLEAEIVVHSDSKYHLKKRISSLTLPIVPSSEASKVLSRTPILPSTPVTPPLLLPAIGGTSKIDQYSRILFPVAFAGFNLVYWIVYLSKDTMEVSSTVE
# UniProt Q14994: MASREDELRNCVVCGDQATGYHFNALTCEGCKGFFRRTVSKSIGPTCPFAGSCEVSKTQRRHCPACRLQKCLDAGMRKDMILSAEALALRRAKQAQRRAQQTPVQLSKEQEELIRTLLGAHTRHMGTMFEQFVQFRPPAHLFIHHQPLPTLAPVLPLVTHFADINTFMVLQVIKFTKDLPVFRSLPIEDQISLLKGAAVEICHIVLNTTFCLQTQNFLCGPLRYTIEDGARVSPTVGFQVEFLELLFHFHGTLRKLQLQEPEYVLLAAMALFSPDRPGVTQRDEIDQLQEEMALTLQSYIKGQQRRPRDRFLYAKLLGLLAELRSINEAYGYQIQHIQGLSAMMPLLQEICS
# Values joined by “and” are separate entries in the source; they are usually repeats but may differ in a detail not shown here. Identical values can stand only once. The list shows a part of the results, in another mix than the full data. Records with an inconclusive call do not appear. Active and inactive are the calls of the source. Rule for the calls: active = hit-call score of the fitted dose curve at least 0.9, where 1 is the maximum; inconclusive = response in the unintended direction; inactive = score below 0.9.
# Assays:
# [1] = biological target: human Peripheral-type Benzodiazepine Receptor (PBR), TSPO (gene 706) (UniProt P30536); experiment: NVS_MP_hPBR: NovaScreen (NVS) Membrane Protein Assay for human Peripheral-type Benzodiazepine Receptor (PBR) (AID 2283331);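 note: hits reduce radioligand binding relative to DMSO baseline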
# In short: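 Scintillation counts of filter-bound radioligand served as read-out after 1 h chemical dosing of human colonic membrane preparations. Activity was scored as signal loss against DMSO; initial duplicates at 25 uM, confirmatory concentration series afterward.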
# [2] = biological target: rat Peripheral-type Benzodiazepine Receptor (PBR), Tspo (gene 24230) (UniProt P16257); experiment: NVS_MP_rPBR: NovaScreen (NVS) Membrane Protein Assay for rat Peripheral-type Benzodiazepine Receptor (PBR) (AID 2283335)
# Protocol: NVS_MP_rPBR is a biochemical, single-readout assay that uses extracted gene-proteins from Rat kidney membranes in a tissue-based cell-free assay. Measurements were taken 1 hour after chemical dosing in a 48-well plate.NVS_MP_rPBR is one of one assay component(s) measured or calculated from the NVS_MP_rPBR assay. It is designed to make measurements of radioligand binding, a form of binding reporter, as detected with scintillation counting signals by Filter-based radiodetection technology.Data from the assay component NVS_MP_rPBR was analyzed into 1 assay endpoint. This assay endpoint, NVS_MP_rPBR, was analyzed in the positive analysis fitting direction relative to DMSO as the negative control and baseline of activity. Using a type of binding reporter, loss-of-signal activity can be used to understand changes in the binding as they relate to the gene Tspo. Furthermore, this assay endpoint can be referred to as a primary readout, because the performed assay has only produced 1 assay endpoint. To generalize the intended target to other relatable targets, this assay endpoint is annotated to the transporter intended target family, where the subfamily is cholesterol transporter.
# Binding assays used specific radioligands (tritiated, iodinated) with non-radioactive competitive displacement ligands in agonist or antagonist protocols (as indicated) and various reference compounds and inhibitors to titrate specific binding to receptors and transporters. Most enzyme assays (CYPs, kinases, phosphatases, proteases, HDACs) used recombinant protein and specific substrates (fluorescence mostly, some colorimetric and radioactive) and inhibitors, followed by a biochemical separation of substrate and product. All assays for the biochemical HTS were initially run in duplicate at a single concentration (10 uM for CYP450 assays and 25 uM for all others). […] Each assay was run with positive and negative controls, and concurrent controls on every plate. […]
# [3] = biological target: rat Thyrotropin Releasing Hormone Receptor (TRH), Trhr (gene 25570) (UniProt Q01717); experiment: NVS_GPCR_rTRH: NovaScreen (NVS) G Protein-Coupled Receptor Assay for rat Thyrotropin Releasing Hormone Receptor (TRH) (AID 2283329);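 note: hit means lower bound tracer signal versus DMSO baseline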
# In short: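 Rat forebrain membranes; radioligand displacement at TRH receptor by filter-based scintillation counting, read 4 h after dosing. Duplicate single-point screen at 25 uM, actives rerun in concentration series; loss of signal relative to DMSO.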
# [4] = biological target: bovine Estrogen Receptor (ER), ESR1 (gene 407238) (UniProt P49884); experiment: NVS_NR_bER: NovaScreen (NVS) Nuclear Receptor Binding Assay for bovine Estrogen Receptor (ER) (AID 2283345);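 note: actives lower the bound radioligand count which means they displace the ER ligand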
# In short: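 Cell-free radioligand binding with bovine uterine membrane extracts, read 18 hours after dosing by scintillation counting. Loss of signal versus DMSO baseline indicates displacement. Primary screen run in duplicate at 25 uM, actives followed in concentration series.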
# [5] = biological target: chimpanzee Androgen Receptor (AR), AR (gene 747460) (UniProt O97775); experiment: NVS_NR_cAR: NovaScreen (NVS) Nuclear Receptor Binding Assay for chimpanzee Androgen Receptor (AR) (AID 2283346);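 note: radioligand displacement from AR measured by scintillation counting in a cell-free assay; a loss of bound radioligand signal versus DMSO counts as binding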
# In short: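 Cell-free competition binding with insect-cell (Sf9/Sf21) extracted chimpanzee AR; scintillation signal from lysate at 72 h. Screened in duplicate at 25 uM, then concentration-response for actives; fitting relative to DMSO.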
# [6] = biological target: Estrogen receptor (Homo sapiens) (UniProt P03372); experiment: NVS_NR_hER: NovaScreen (NVS) Nuclear Receptor Binding Assay for human Estrogen Receptor (ER) (AID 2283348)
# In short: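 Scintillation signal from bound radioligand was measured 18 hours after chemical addition to cell-free MCF7 protein extracts, with DMSO as baseline. Activity was scored as signal loss; compounds ran first at 25 uM in duplicate.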
# [7] = biological target: rat Oxytocin Receptor (OXT), Oxtr (gene 25342) (UniProt P70536); experiment: NVS_GPCR_rOXT: NovaScreen (NVS) G Protein-Coupled Receptor Assay for rat Oxytocin Receptor (OXT) (AID 2283330)
# In short: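 Radioligand displacement on rat uterine membranes, 1 h incubation, filter-based scintillation counting. Chemicals were screened in duplicate at 25 uM, and those passing threshold were retested in concentration-response up to 50 uM. Loss of binding was fitted versus DMSO.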
# [8] = biological target: rat Gamma-Aminobutyric Acid Type A Receptor BDZ, alpha 6 site (GABARa6), Gabra6 (gene 29708) (UniProt P30191); experiment: NVS_LGIC_rGABARa6: NovaScreen (NVS) Ligand-Gated Ion Channel Assay for rat Gamma-Aminobutyric Acid Type A Receptor BDZ, alpha 6 site (GABARa6) (AID 2283339)
# Protocol: NVS_LGIC_rGABARa6 is a biochemical, single-readout assay that uses extracted gene-proteins from Rat cerebellar membranes in a tissue-based cell-free assay. Measurements were taken 1 hour after chemical dosing in a 48-well plate.NVS_LGIC_rGABARa6 is one of one assay component(s) measured or calculated from the NVS_LGIC_rGABARa6 assay. It is designed to make measurements of radioligand binding, a form of binding reporter, as detected with scintillation counting signals by Filter-based radiodetection technology.Data from the assay component NVS_LGIC_rGABARa6 was analyzed into 1 assay endpoint. This assay endpoint, NVS_LGIC_rGABARa6, was analyzed in the positive analysis fitting direction relative to DMSO as the negative control and baseline of activity. Using a type of binding reporter, loss-of-signal activity can be used to understand changes in the binding as they relate to the gene Gabra6. Furthermore, this assay endpoint can be referred to as a primary readout, because the performed assay has only produced 1 assay endpoint. To generalize the intended target to other relatable targets, this assay endpoint is annotated to the ion channel intended target family, where the subfamily is ligand-gated ion channel. […]
# NCBI gene 100848466 = experiment: NVS_NR_bPR: NovaScreen (NVS) Nuclear Receptor Binding Assay for bovine Progextron Receptor (PR) (AID 2283343);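 note: actives lower bound radioligand signal below DMSO meaning displacement of the label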
# In short: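 Membranes from bovine uterus; radiolabelled ligand plus test chemical; 18 h; scintillation read-out. Activity = signal loss vs DMSO. Primary: 25 uM, duplicate; secondary: concentration series.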
# [9] = biological target: human Constitutive Androstane Receptor (CAR), NR1I3 (gene 9970) (UniProt Q14994); experiment: NVS_NR_hCAR_Antagonist: NovaScreen (NVS) Nuclear Receptor Binding Assay for human Constitutive Androstane Receptor Antagonism (CAR) (AID 2283344)
# In short: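 Cell-free TR-FRET binding read 1 h after dosing, antagonist mode; loss of signal versus DMSO baseline. Primary screen in duplicate at a single 25 uM; actives retested in concentration series.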
compound,measurement,setting,value
CCCCOP(OCCCC)OCCCC,AC50,[1],active: 6.62 µM
same,AC50,[2],active: 1.76 µM
O=[P+](Oc1ccccc1)Oc1ccccc1,outcome,[3],inactive
same,AC50,[4],active: 25 µM
ClP(Cl)c1ccccc1,outcome,[4],inactive
same,outcome,[5],inactive
same,outcome,[6],inactive
CC(C)CCCCCCCOP(OCCCCCCCC(C)C)Oc1ccccc1,outcome,[3],inactive
CC(C)OP(=S)(OC(C)C)SCCNS(=O)(=O)c1ccccc1,outcome,[7],inactive
same,AC50,[1],active: 1.78 µM and active: 1.15 µM and active: 2.21 µM
same,AC50,[2],active: 1.11 µM and active: 1.44 µM and active: 916 nM
same,outcome,[8],inactive
same,AC50,NCBI gene 100848466,active: 2.25 µM and active: 2.17 µM and active: 2.04 µM
same,AC50,[9],active: 3.19 µM and active: 3.47 µM and active: 4.12 µM
O=C1C2CC=CCC2C(=O)N1SC(Cl)(Cl)C(Cl)Cl (stereo unspecified),outcome,[3],inactive
CCCCO[P+](=O)OCCCC,outcome,[2],inactive
